# Measured values reported in PubChem BioAssay AID720709 (National Center for Advancing Translational Sciences (NCATS), 2013).
# Chains of the proteins cited; added tags and fusions are not shown.
# UniProt O95398, whole entry: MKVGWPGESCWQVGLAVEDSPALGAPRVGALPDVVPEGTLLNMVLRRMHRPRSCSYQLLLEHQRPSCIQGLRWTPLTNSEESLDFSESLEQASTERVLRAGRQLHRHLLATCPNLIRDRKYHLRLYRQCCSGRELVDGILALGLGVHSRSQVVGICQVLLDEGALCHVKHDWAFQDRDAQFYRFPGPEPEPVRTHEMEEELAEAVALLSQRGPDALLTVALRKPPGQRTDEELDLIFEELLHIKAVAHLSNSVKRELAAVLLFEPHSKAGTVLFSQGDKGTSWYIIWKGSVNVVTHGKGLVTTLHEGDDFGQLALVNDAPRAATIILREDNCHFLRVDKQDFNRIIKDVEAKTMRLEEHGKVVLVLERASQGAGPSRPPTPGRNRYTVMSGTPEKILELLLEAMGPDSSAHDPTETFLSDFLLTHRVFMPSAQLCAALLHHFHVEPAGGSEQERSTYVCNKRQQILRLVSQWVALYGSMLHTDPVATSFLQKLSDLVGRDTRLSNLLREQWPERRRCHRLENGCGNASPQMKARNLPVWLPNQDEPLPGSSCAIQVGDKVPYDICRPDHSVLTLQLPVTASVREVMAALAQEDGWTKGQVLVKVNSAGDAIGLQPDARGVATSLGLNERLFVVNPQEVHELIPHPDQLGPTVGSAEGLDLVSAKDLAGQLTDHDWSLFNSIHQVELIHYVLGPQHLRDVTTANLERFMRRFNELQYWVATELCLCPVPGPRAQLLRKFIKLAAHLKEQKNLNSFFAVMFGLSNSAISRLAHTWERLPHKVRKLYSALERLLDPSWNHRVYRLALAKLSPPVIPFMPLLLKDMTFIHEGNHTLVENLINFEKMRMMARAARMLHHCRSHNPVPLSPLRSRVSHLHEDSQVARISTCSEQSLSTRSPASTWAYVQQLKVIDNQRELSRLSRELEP
# Only a part is listed here, and it is no random draw. Some tests of the compounds listed are not included; inactive here does not mean inactive elsewhere. Results filed as inconclusive are left out. Activity calls are given as the source filed them. Calls come from the whole dose curve; as a rule, active = well fitted inhibition curve with a large enough effect; inconclusive = small, poorly fitted or top-dose-only effect; inactive = no such curve, though single readings can be large or run the other way.
# Target: Rap guanine nucleotide exchange factor 3 (Homo sapiens) (UniProt O95398)
# Assay: qHTS for Antagonist of cAMP-regulated guanine nucleotide exchange factor 3 (EPAC1): primary screen; note: nearly all actives have a fitted effect of over 50% in size
# Conditions: EPAC1 GEF assay, Rap1b-BODIPY-GDP exchange fluorescence; at 115 µM (top of the series)
# Text: In multi-cellular eukaryotic organisms, the effects of cAMP are transduced by two ubiquitously-expressed intracellular cAMP receptors, the classic protein kinase A/cAMP-dependent protein kinase (PKA/cAPK) and the more recently discovered exchange protein directly activated by cAMP/cAMP-regulated guanine nucleotide exchange factor (EPAC/cAMP-GEF). Both PKA and EPAC are ubiquitously expressed in all tissues, and an increase in intracellular cAMP levels will lead to the activation of both PKA and EPAC. Therefore, careful dissections of the individual role and relative contribution of EPAC and PKA within the overall cAMP signaling in various model systems are critical for further elucidating the mechanism of cAMP signaling. To date no EPAC-specific antagonists and agonist, as well as isoform-specific agonists have been reported, and developing EPAC-specific pharmacological probes to determine the physiological functions that EPAC play in the overall cAMP-mediated signaling remains a major challenge within the research field. Furthermore, identified regulators of EPAC may lead to new mechanism-based therapeutic strategies specifically targeting the EPAC / cAMP-signaling components as EPAC has been implicated to play important roles in major human pathological conditions such as diabetes, heart disease, and cancer. This qHTS will be used to screen the Molecular Libraries Small Molecule Repository (MLSMR) as a concentration-titration series using the NCGC unique quantitative screening (qHTS) platform to find inhibitors for EPAC1. In addition, this assay will also be used as a counterscreen for the EPAC2 qHTS. This fluorescent based assay is developed and validated for EPAC1 that measures exchange using EPAC effector Rap1 complex with BODIPY-GDP, a GDP analog with a tethered fluorophores. Inhibitors are identified by monitoring the change in fluorescence signal as the exchanged free BODIPY-GDP has a reduced fluorescence compared to Rap1-bound BODIPY-GDP. Decrease in signal (inhibition) is the desired outcome for the EPAC1 antagonist while no activity in this assay is desired for the EPAC2 antagonist counterscreen. de Rooij, J., Zwartkruis, F. J., Verheijen, M. H., Cool, R. H., Nijman, S. M., Wittinghofer, A., and Bos, J.L. (1998) Nature 396, 474-477 [2] Kawasaki, H., Springett, G. M., Mochizuki, N., Toki, S., Nakaya, M., Matsuda, M., Housman, D. E., and Graybiel, A. M. (1998) Science 282, 2275-2279 NIH Chemical Genomics Center [NCGC] NIH Molecular Libraries Probe Centers Network [MLPCN] MLPCN Grant: NS066510 Assay Submitter (PI): Xiaodong Cheng, The University of Texas, Medical Branch
# Briefly, three uL of reagents (100 nM EPAC1, 250 nM RAP1B-BODIPY-GDP, 50 uM GDP) were dispensed into a 1536-well Greiner black solid-bottom medium binding assay plate. Controls and test compounds (23 nL) were transferred to the plate via a Kalypsys pin tool equipped with a 1536-pin array. The plates were centrifuged at 1,000 rpm for 15 seconds followed by 5 minute incubation at room temperature. The assay plates were read at 5 minute intervals for 30 minutes in the ViewLux plate reader using 480nm excitation and 540nm emission filters. The results were normalized to the […] positive control ATA and DMSO.
row,Structure (SMILES),"activity change, negative = inhibition"
1,O=C(OC1CN2CCC1CC2)C(CO)(c1ccccc1)c1ccccc1 (stereo not given),inactive: -13.1%
2,C=C(C)C#CC(O)(C(=O)OC1CCN(C)CC1)c1ccccc1 (stereo not given),inactive: 16.2%
3,COc1ccc(Br)c(C(=O)NCC2(N3CCCCC3)CCCCC2)c1,inactive: 0.605%
4,CC(C)Oc1ccc(C(=O)NCC2(N(C)C)CCCCC2)cc1,inactive: -14.6%
5,O=C(OCCN1CCCC1)C(O)(c1ccccc1)c1ccccc1,inactive: -11.1%
6,CN(C)c1cccc(C(=O)NCC2(N(C)C)CCCCC2)c1,inactive: 2.37%
7,CN(C)C1(CNC(=O)c2ccc(Br)cc2)CCCCC1,inactive: -2.87%
8,COc1cc(C(=O)NCC2(N(C)C)CCCCC2)c([N+](=O)[O-])cc1OC,inactive: 3.25%
9,COc1cccc(C(=O)NCC2(N3CCCCC3)CCCCC2)c1,inactive: -17.4%
10,COc1ccc(Cl)cc1C(=O)NCC1(N(C)C)CCCCC1,inactive: -0.364%
11,O=C(NCC1(N2CCCCC2)CCCCC1)c1cccc(Cl)c1,inactive: -7.66%
12,Cc1ccccc1C(=O)NCC1(N2CCCCC2)CCCCC1,inactive: -7.91%
13,CN(C)C1CCCC1OC(=O)C(O)(c1ccccc1)c1ccccc1 (stereo not given),inactive: 8.85%
14,CN(C)c1ccc(C(=O)NCC2(N(C)C)CCCCC2)cc1,inactive: -6.69%
15,C=CCN1CCN(CCOC(=O)C(O)(c2ccccc2)c2ccccc2)CC1,inactive: -17.3%
16,O=C(NCC1(N2CCCCC2)CCCCC1)c1cc(F)c(F)cc1Cl,inactive: 18.9%
17,COc1ccc(C(=O)NCC2(N(C)C)CCCCC2)cc1,inactive: 1.8%
18,Cc1cc(C(=O)NCC2(N3CCCCC3)CCCCC2)ccc1[N+](=O)[O-],inactive: 13.1%
19,CCN1CCCC(OC(=O)C2(O)c3ccccc3C=Cc3ccccc32)C1 (stereo not given),inactive: 1.85%
20,O=C(NCC1(N2CCCCC2)CCCCC1)c1cccc(Br)c1,inactive: 25.4%
21,O=C(NCC1(N2CCCCC2)CCCCC1)c1cc([N+](=O)[O-])ccc1Cl,inactive: 6.64%
22,CN1[C@@H]2CC[C@H]1CC(OC(=O)C(O)(c1ccccc1)c1ccccc1)C2 (stereo not given in full),inactive: -1.4%
23,CCN(CC)CC(C)C(C)OC(=O)C(O)(c1ccccc1)c1ccccc1 (stereo not given),inactive: -7.73%
24,COc1cc(SC)ccc1C(=O)NCC1(N(C)C)CCCCC1,inactive: -8.14%
25,CC(C)N1C(=O)CC2(CCN(CCOC(=O)C(O)(c3ccccc3)c3ccccc3)CC2)C1=O,inactive: -1.5%
